Source: US20090317825A1, “ASSAY FOR PARKINSON'S DISEASE THERAPEUTICS AND ENZYMATICALLY ACTIVE PARKIN PREPARATIONS USEFUL THEREIN” (ELAN PHARMA INTERNATIONAL LIMITED, priority 2005, published 2009)

T1: Parkin (Homo sapiens, UniProt O60260)
T1 construct: made in house; host or cells: E. coli BL21 (DE3)-pLysS, plasmid pET30a-Parkin
T1 sequence (O60260 1-465): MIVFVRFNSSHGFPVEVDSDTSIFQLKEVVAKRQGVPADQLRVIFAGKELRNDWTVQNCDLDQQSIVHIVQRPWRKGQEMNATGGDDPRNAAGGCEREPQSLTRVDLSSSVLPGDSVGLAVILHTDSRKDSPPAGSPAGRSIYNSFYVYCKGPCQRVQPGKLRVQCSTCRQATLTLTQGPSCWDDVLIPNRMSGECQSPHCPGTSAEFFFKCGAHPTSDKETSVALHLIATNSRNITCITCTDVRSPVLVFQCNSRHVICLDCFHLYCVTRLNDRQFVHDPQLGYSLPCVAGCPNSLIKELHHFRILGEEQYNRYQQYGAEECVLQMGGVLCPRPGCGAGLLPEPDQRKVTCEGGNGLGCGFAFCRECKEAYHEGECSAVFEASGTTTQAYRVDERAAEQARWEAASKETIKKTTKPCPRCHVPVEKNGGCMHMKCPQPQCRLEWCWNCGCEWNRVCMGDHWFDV

B1: His-tagged Parkin: Full-length human Parkin fused to N-terminal histidine tag, expressed in E. coli, purified from inclusion bodies and refolded (protein, UniProt O60260 1-465, looked up)
E3 ubiquitin-protein ligase …: T1 sequence (O60260 1-465)
modifications: His tag
B2: #8BSEC: His6-tagged Parkin fraction additionally purified by S200 size exclusion chromatography, then refolded (protein, UniProt O60260 1-465, looked up)
E3 ubiquitin-protein ligase …: T1 sequence (O60260 1-465)
modifications: His6 tag

Molecular target: T1, Parkin
Experiment: Parkin autoubiquitination activity assay of purified recombinant Parkin
Type: biochemical
Excerpt: The dialysate containing Parkin can be collected and any precipitant removed. The activity of the purified protein can be determined using an autoubiquitination assay. See Lorick et al., 1999, “RING fingers mediate ubiquitin-conjugating enzyme (E2)-dependent ubiquitination” Proc Natl Acad Sci USA 96:11364-9 and Example 10. Preferably the specific activity of the purified Parkin material (>95% Parkin protein) is at least about 0.1 Unit/0.5 microgram Parkin protein. For example, the specific activity may be between 0.1 Unit per 0.5 micrograms and 5 Units/0.5 micrograms. In certain embodiments the specific activity is at least about 0.2 U, at least about 0.25 U, or at least 0.5 U/0.5 microgram Parkin protein In referring to specific activity a “Unit” is defined as the ability of a Parkin protein preparation to transfer 50 ng ubiquitin to Parkin in 15 minutes (e.g., under the assay conditions described in Example 10, below, where from 0.5 to 10 micrograms, usually 0.5 micrograms, Parkin protein is used in the reaction) or, equivalently, one-quarter unit is the ability to transfer 25 ng ubiquitin to Parkin in 30 minutes.
An assay mixture containing His6-Parkin prepared as described in Examples 6 and 7 was prepared. The 50 ul volume assay contained:
1 mM Mg-ATP (omitted from controls) • *29.2 μl of 1 mM methylated ubiquitin (U-502, Boston Biochem lot #2880574, dissolved in dH2O to 1 mM) was used to resuspend 50 μg of biotin-ubiquitin (UB-560, Boston Biochem lot #2011584).
The reaction was incubated at 37° C. for 0, 15, 30, 60 or 90 minutes, and reactions terminated by adding 6 μl 5× sample buffer (250 mM HEPES pH 7.5; 250 mM NaCl) plus 4 μl 1 M DTT.
A 15 μl aliquot of the assay mixture was electrophoresed on an 12% polyacrylamide gel and transferred to a polyvinylidene fluoride (PVDF) membrane overnight (25V in 10 mM CAPS, pH 11, 10% MeOH, 4° C.) for Western blotting. The membrane was blocked 2 hours in TBST+5% BSA and incubated 1 hour at room temperature with NeutrAvidin-HRP (dilution: 1:7,500) in TBST+3% BSA (1 hour at room temperature). […]

Row | Molecule | specific activity (Unit = ability to transfer 50 ng ubiquitin to Parkin in 15 minutes, in the presence of human GST-E1, UbCH7, ubiquitin and Mg-ATP) | ubiquitin transferred to Parkin (in 30 minutes, 0.5 microgram Parkin) | activity compared with the #8B material (after optional SEC purification and refolding)
1 | B1 | approximately one-quarter | 25.2 ng | 
2 | B2 |  |  | about the same
